## AlphaSeq binding of Ab-14 light chain variants to a spike HR2 peptide

Reference: Li et al. 2023, doi:10.1038/s41467-023-39022-2. File: FLAb, binding data.

All variants were tested on one target, the spike HR2 peptide PDVDLGDISGINAS (SARS-CoV-2).

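This is the validation round: designs drawn from the data on random variants, tested in the same kind of assay. Several design methods are mixed in this list. AlphaSeq pools MATa yeast showing the antibodies with MATalpha yeast showing the peptide. Pairs that bind mate more often; barcode pairs of the diploids are counted by sequencing. Read counts were normalised to the haploid input and turned into Kd by a linear fit to BCL2-family pairs of known affinity, for each replicate. Mating was done six times.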

Parent: Ab-14, a human scFv built as VH, a (GGGGS)3 linker, VL. Only the CDRs of the light chain vary.
VH: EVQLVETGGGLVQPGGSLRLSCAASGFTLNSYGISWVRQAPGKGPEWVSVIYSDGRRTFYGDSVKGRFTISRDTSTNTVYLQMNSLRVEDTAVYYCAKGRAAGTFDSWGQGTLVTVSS
VL: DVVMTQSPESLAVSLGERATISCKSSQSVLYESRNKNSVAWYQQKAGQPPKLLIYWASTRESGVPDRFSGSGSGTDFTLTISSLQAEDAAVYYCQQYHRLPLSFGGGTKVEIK

Positions count from residue 1 of the parent VL; S25M puts M in place of S. This list holds designs with at most six substitutions. Each Kd is an estimate from the mating assay, the geometric mean of the replicates in which the pair was seen; lower is stronger. "nd" means that the variant was in the library but no mating with the target was seen in any replicate; the authors take this as a sign of poor binding, and no number exists. The parent sequence was in this pool as ten entries: three were never detected, three once, and four in most replicates, with averages from 2.2 nM to 240 nM. The authors averaged sequences with at least three values out of six and counted those with two or fewer as poor binders. Nonspecific signal, from three strains lacking the peptide, appeared in 4% of pairings of all light chain designs, centred on 430 nM (5% of these signals below 38 nM); values are not corrected for it. The range of this assay differs from that of the first round, and the authors advise against merging the two.

Variant S25M+S28A+L100F gave 20 nM (5 of 6 replicates).
Variant S26H+S33N gave 72 nM (1 of 6 replicates).
Variant K24A+V29H+L30R gave nd (0 of 6 replicates).
Variant S25L+S26M+S33D+W56N+T59Q gave 1.6 nM (6 of 6 replicates).
Variant Y31I+W56A+Q95F gave 19 nM (6 of 6 replicates).
Variant Q27P+V29Y+Y31G+W56E gave 660 pM (6 of 6 replicates).
Variant N35C+H98L gave nd (0 of 6 replicates).
Variant S25L+W56G+A57G gave 420 pM (6 of 6 replicates).
Variant S25M+V29W+W56N+T59Q+E61L gave 980 pM (6 of 6 replicates).
Variant S25L+Q27E+W56D gave 500 pM (6 of 6 replicates).
Variant Q27G+V29G+W56E gave 350 pM (6 of 6 replicates).
Variant S25L+K36T+W56N+Q96D gave 1.9 nM (6 of 6 replicates).
Variant Q27W+W56D+E61S gave 7.6 nM (6 of 6 replicates).
Variant S25Q+S33T+W56D gave 780 pM (6 of 6 replicates).
Variant S25L+S26P+S28G+W56G+T59Q gave 500 pM (6 of 6 replicates).
Variant V29W+L30D+W56G gave 470 pM (6 of 6 replicates).
Variant V29M+R34E+W56K+S58T+E61T+S62R gave 24 nM (6 of 6 replicates).
Variant E32I+N35D+K36G+S62H+Y97P+S103C gave nd (0 of 6 replicates).
Variant E61Y gave 110 nM (4 of 6 replicates).
Variant S26G+Q27I+V29Y+W56E+Y97H gave 510 nM (1 of 6 replicates).
Variant S25L+V29T+N35M+W56N gave 1.3 nM (6 of 6 replicates).
Variant S25L+S26P+V29A+L30E+E32Q+W56S gave 680 pM (6 of 6 replicates).
Variant S25V+Q27F+V29Y+W56N gave 460 pM (6 of 6 replicates).
Variant S25V+Q27P+V29N+W56N gave 1.3 nM (6 of 6 replicates).
Variant S25L+S26P+W56H+S62Q gave 500 pM (6 of 6 replicates).
Variant L30I+E32A+S62R gave nd (0 of 6 replicates).
Variant S25L+S26Y+V29D+W56H gave 660 pM (6 of 6 replicates).
Variant S25F+Q27D+Y31L+N35T+W56D gave 750 pM (6 of 6 replicates).
Variant L30K+Y31D+W56D gave 790 pM (6 of 6 replicates).
Variant Q27I+V29Y+R34L+W56N+A57G gave 2.2 nM (6 of 6 replicates).
Variant S25H+V39I+W56A gave 2.7 nM (6 of 6 replicates).
Variant S25L+S26Q+Q27F+V29W+W56N gave 770 pM (6 of 6 replicates).

Repeated from above, the 5 best binders with a signal in all replicates:

changes	apparent Kd	seen in
Q27G+V29G+W56E	350 pM	6/6
S25L+W56G+A57G	420 pM	6/6
S25V+Q27F+V29Y+W56N	460 pM	6/6
V29W+L30D+W56G	470 pM	6/6
S25L+Q27E+W56D	500 pM	6/6